Values of other authors, collected in patent US20250127175A1, “ANTIMICROBIAL POLYMER COMPOSITIONS, ANTIMICROBIAL POLYMER ARTICLES, AND METHODS OF MAKING THE SAME” (CORNING INCORPORATED, priority 2021, published 2025).

Details: water-soluble defined as minimum of 20 grams in 100 milliliters of water at 25° C.

SMILES: CCCCn1cc[n+](C)c1.[Br-] [1-butyl-3-methylimidazolium bromide]
- water solubility (in words): water soluble
